Assay results published in patent EP4831176A1, “BICYCLIC FUSED HETEROAROMATIC RING DERIVATIVE, AND PHARMACEUTICAL COMPOSITION AND USE THEREOF” (dated 2026).

Chains of the proteins cited; added tags and fusions are not shown.
UniProt O75530, whole entry: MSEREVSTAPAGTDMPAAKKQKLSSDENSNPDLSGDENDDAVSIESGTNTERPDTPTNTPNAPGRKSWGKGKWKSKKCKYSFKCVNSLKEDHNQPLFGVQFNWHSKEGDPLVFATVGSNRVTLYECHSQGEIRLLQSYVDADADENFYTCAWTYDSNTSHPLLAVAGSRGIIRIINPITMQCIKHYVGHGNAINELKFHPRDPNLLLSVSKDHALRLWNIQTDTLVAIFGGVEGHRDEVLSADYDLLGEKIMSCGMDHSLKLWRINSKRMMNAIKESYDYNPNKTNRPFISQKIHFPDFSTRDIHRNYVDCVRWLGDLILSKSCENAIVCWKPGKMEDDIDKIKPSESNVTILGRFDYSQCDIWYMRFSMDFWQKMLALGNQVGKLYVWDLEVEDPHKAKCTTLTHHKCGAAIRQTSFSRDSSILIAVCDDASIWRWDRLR

Columns and labels:
Pfeiffer cells = assay: Proliferation inhibition of Pfeiffer tumor cells, Cell Titer-Glo; conditions: read-out: CTG IC50, 144 hours incubation
From the text: In this experiment, Cell Titer-Glo reagent was used to quantitatively analyze the proliferation activity of Pfeiffer cells to detect the inhibitory ability of the compounds on tumor cell proliferation. The specific steps were as follows: • 1. Pfeiffer cells were purchased from Nanjing Cobioer (purchased from ATCC, Catalog No. #CRL2632), subcultured and maintained in logarithmic growth state using RPMI-1640 complete medium (containing 10% v/v fetal bovine serum) according to the supplier's recommended conditions. […] Before cell seeding, cells were collected in a centrifuge tube, centrifuged at 250 rcf for 3 minutes, and the culture medium was discarded. The cells were resuspended in fresh complete medium, and 20 µL of the cell suspension was taken to calculate the cell concentration using a Countstar cell counter. After adjusting the density, cells were seeded into a 384-well plate at 2,000 cells/45 µL and pre-incubated in a 37°C, 5% CO2 incubator for 4 hours. • 3. The negative and positive control groups were treated with 5 µL of control solution (non-complete medium containing 1% v/v DMSO). Compound gradient dilutions were prepared using non-complete medium, and 5 µL of the dilutions were added to the corresponding culture wells. The final concentration of DMSO in the test was 0.1% v/v. Subsequently, the plate was incubated in a 37°C, 5% CO2 incubator for 144 hours. • 4. 40 µL of Cell Titer-Glo reagent was added directly to the cell culture, and the plate was incubated at room temperature in the dark for 30 minutes. The luminescence value was then read on a plate reader, and the results were used to analyze the cell proliferation ratio and compound activity. • 5. The signal value of the negative control group was set as Bottom, and the signal value of the positive control group was set as Top. The compound concentration value (logarithm) was the X-axis, and the luminescence reading at the corresponding concentration was the Y-axis, with HillSlope as the slope factor. A four-parameter logistic model (4PL logistic model) was used for fitting, and the calculation method was as follows:Y = Bottom + (Top - Bottom) / (1 + 10^((Log IC50 - X) × HillSlope))
After fitting, the IC50 value of the compound was calculated, and the proliferation inhibitory activity of the compound was compared based on the IC50 value.

EED protein = EED protein (Homo sapiens, UniProt O75530); assay: EED protein degradation in Karpas-422 cells, In-cell western (ICW); conditions: 18 hours incubation
From the text: In this experiment, In-cell western (ICW) method was used to quantitatively analyze the EED protein expression level in Karpas-422 cells to detect the degradation activity of the compounds on the target protein. The specific steps were as follows: • 1. Karpas-422 cells were purchased from Nanjing Cobioer (Catalog No. CBP60629), subcultured and maintained in logarithmic growth state using RPMI-1640 complete medium (containing 10% v/v fetal bovine serum) according to the supplier's recommended conditions. […] One day before cell seeding, a 384-well plate was coated with 30 µL of coating buffer (phosphate buffered saline containing 30 µg/mL poly-D-lysine) at room temperature for 2 hours. The coating solution was then discarded, and the plate was washed once with 90 µL of phosphate buffered saline, which was then discarded. The plate was allowed to air dry naturally in a clean bench, wrapped around the edges with Parafilm to prevent moisture, and stored in a 4°C refrigerator until use. • 3. Before cell seeding, cells were collected in a centrifuge tube, centrifuged at 250 rcf for 3 minutes, and the culture medium was discarded. The cells were resuspended in fresh complete medium, and 20 µL of the cell suspension was taken to calculate the cell concentration using a Countstar cell counter. After adjusting the density, cells were seeded into the prepared coated plate at 15,000 cells/45 µL and pre-incubated in a 37°C, 5% CO2 incubator for 4 hours. • 4. The negative and positive control groups were treated with 5 µL of control solution (serum-free medium containing 1% v/v DMSO). Compound gradient dilutions were prepared using the control solution, and 5 µL of the dilutions were added to the corresponding culture wells. The final concentration of DMSO in the test was 0.1% v/v. Subsequently, the plate was incubated in a 37°C, 5% CO2 incubator for 18 hours. • 5. The culture plate was removed, and cells were fixed by directly adding 10 µL of fixative solution (phosphate buffered saline containing 3% v/v glutaraldehyde) to the cells and incubating at room temperature for 30 minutes. The liquid was discarded. Subsequently, cells were treated with 30 µL of permeabilization staining solution (phosphate buffered saline containing 0.1% v/v Triton X-100 and 20 µg/mL Hoechst 33342) at room temperature for 30 minutes. The permeabilization solution was discarded, and the fluorescence value (excitation at 360 nm, emission at 460 nm) was read on a microplate reader. • 6. 50 µL of repair solution (50 mM citric acid buffer) was added to all wells, and the plate was incubated at 70°C for 2 hours on a constant temperature incubation shaker. The microplate was then removed, equilibrated to room temperature, and the liquid was discarded. • 7. A sufficient amount of antibody dilution buffer (Tris Buffered Saline-Tween solution containing 1% w/v bovine serum albumin) was prepared and stored in a 4°C refrigerator until use. • 8. Primary antibody dilution (EED antibody diluted 1:1000 with antibody dilution buffer) was prepared. 30 µL of antibody dilution buffer without antibody was added to the negative control group. 30 µL of the primary antibody dilution was added to the cells in the other groups, and the plate was incubated overnight at 4°C. • 9. The primary antibody dilution was discarded. The plate was washed 3 times with 90 µL of Tris Buffered Saline-Tween solution, and the wash solution was discarded. Secondary antibody dilution (HRP-linked antibody diluted 1:500 with antibody dilution buffer) was prepared, and 30 µL was added to the cells. The plate was incubated at room temperature for 2 hours. • 10. The secondary antibody dilution was discarded. The plate was washed 3 times with 90 µL of Tris Buffered Saline-Tween solution, and the wash solution was discarded. 30 µL of TMB substrate solution was added, and the plate was incubated at room temperature in the dark for 15 minutes. Then, 30 µL of stop solution (2 M sulfuric acid) was added to terminate the reaction. […]

`Cn1nc(C2CCC(=O)NC2=O)c2cc(F)c(N3CCC(CN4CCC(c5ccc(-c6cnc(NCc7c(F)ccc8c7CCO8)n7cnnc67)cc5)CC4)CC3)cc21` (stereo not drawn) showed an IC50 (Pfeiffer cells) of 0.9 nM and a Dmax (EED protein) of 63%.
With `Cn1nc(C2CCC(=O)NC2=O)c2ccc(N3CCC(F)(CN4CCC(c5ccc(-c6cnc(NCc7c(F)ccc8c7CCO8)n7nnnc67)cc5)CC4)CC3)cc21` (stereo not drawn) the IC50 (Pfeiffer cells) was 12 nM and the Dmax (EED protein) was 65%.
With `Cn1nc(C2CCC(=O)NC2=O)c2ccc(N3CCC(CN4CCC(c5ccc(-c6cnc(NCc7c(F)ccc8c7CCO8)n7nnnc67)cc5)CC4)CC3)cc21` (stereo not drawn) the IC50 (Pfeiffer cells) was 1.7 nM and the Dmax (EED protein) was 66%.
Work on `Cn1nc(C2CCC(=O)NC2=O)c2ncc(N3CCC(CN4CCC(n5cc(-c6cnc(NCc7c(F)ccc8c7CCO8)n7cnc(Cl)c67)cn5)CC4)CC3)cc21` (stereo not drawn) yielded an IC50 (Pfeiffer cells) of 5 nM and a Dmax (EED protein) of 37%.
In the case of `Cn1c(=O)n(C2CCC(=O)NC2=O)c2ccc(N3CCC(NC(=O)c4ccc(-c5cnc(NCc6c(F)ccc7c6CCO7)n6cnc(Cl)c56)cn4)CC3)cc21` (stereo not drawn), the IC50 (Pfeiffer cells) is reported as 29 nM and the Dmax (EED protein) is reported as 36%.
For `O=C1CCC(N2C(=O)c3ccc(N4CCC(c5ccc(-c6cnc(NCc7c(F)ccc8c7CCO8)n7cnc(Cl)c67)cc5)CC4)cc3C2=O)C(=O)N1` (stereo not drawn), the Dmax (EED protein) was 25%.
In the case of `Cn1c(=O)n(C2CCC(=O)NC2=O)c2ccc(N3CCC(CN4CCC(n5cc(-c6cnc(NCc7c(F)ccc8c7CCO8)n7cnc(Cl)c67)nn5)CC4)CC3)cc21` (stereo not drawn), the IC50 (Pfeiffer cells) is reported as 0.1 nM and the Dmax (EED protein) is reported as 62%.
In the case of `O=C1CCC(N2C(=O)c3ccc(N4CCC(CN5CCC(n6cc(-c7cnc(NCc8c(F)ccc9c8CCO9)n8cnc(Cl)c78)cn6)CC5)CC4)cc3C2=O)C(=O)N1` (stereo not drawn), the IC50 (Pfeiffer cells) is reported as 15 nM and the Dmax (EED protein) is reported as 51%.
In the case of `Cn1nc(C2CCC(=O)NC2=O)c2ccc(N3CCC(CN4CCC(c5cnc(-c6cnc(NCc7c(F)ccc8c7CCO8)n7cnc(Cl)c67)nc5)CC4)CC3)cc21` (stereo not drawn), the IC50 (Pfeiffer cells) is reported as 4 nM and the Dmax (EED protein) is reported as 62%.
With `Cc1ncn2c(NCc3c(F)ccc4c3CCO4)ncc(-c3ccc(C4CCN(CC5CCN(c6ccc7c(C8CCC(=O)NC8=O)nn(C)c7c6)CC5)CC4)cc3)c12` (stereo not drawn) the IC50 (Pfeiffer cells) was 1.7 nM and the Dmax (EED protein) was 58%.
`Cc1nc(C2CN(CC3CCN(c4ccc5c(C6CCC(=O)NC6=O)nn(C)c5c4)CC3)C2)ccc1-c1cnc(NCc2c(F)ccc3c2CCO3)n2cnc(Cl)c12` (stereo not drawn) gave an IC50 (Pfeiffer cells) of 8 nM and a Dmax (EED protein) of 47%.
`Cn1nc(C2CCC(=O)NC2=O)c2ccc(N3CCC(CN4CCC(n5cc(-c6cnc(NCc7c(F)ccc8c7CCO8)n7nnnc67)cn5)CC4)CC3)cc21` (stereo not drawn) was tested, and the IC50 (Pfeiffer cells) was 8 nM and the Dmax (EED protein) was 52%.
Molecule `Cn1nc(C2CCC(=O)NC2=O)c2ccc(N3CCC(CN4CCC(c5ccc(-c6cnc(NCc7c(F)ccc8c7CCO8)n7cnc(I)c67)cc5)CC4)CC3)cc21` (stereo not drawn) has an IC50 (Pfeiffer cells) of 9 nM and a Dmax (EED protein) of 56%.
With `Cn1nc(C2CCC(=O)NC2=O)c2ccc(N3CCC(CN4CCC(c5ncc(-c6cnc(NCc7c(F)ccc8c7CCO8)n7nnnc67)cn5)CC4)CC3)cc21` (stereo not drawn) the IC50 (Pfeiffer cells) was 1.1 nM and the Dmax (EED protein) was 68%.
For `Cn1nc(C2CCC(=O)NC2=O)c2ccc(N3CCC(CN4CCC(N5CCC(c6cnc(NCc7c(F)ccc8c7CCO8)n7cnc(Cl)c67)CC5)CC4)CC3)cc21` (stereo not drawn), the Dmax (EED protein) was 38%.
Molecule `Cn1nc(C2CCC(=O)NC2=O)c2ccc(N3CCC(C(=O)N4CCC(n5cc(-c6cnc(NCc7c(F)ccc8c7CCO8)n7cnc(Cl)c67)cn5)CC4)CC3)cc21` (stereo not drawn) has an IC50 (Pfeiffer cells) of 1.3 nM and a Dmax (EED protein) of 48%.
`Cn1nc(C2CCC(=O)NC2=O)c2ccc(N3CCC(CN4CCC(n5nnc(-c6cnc(NCc7c(F)ccc8c7CCO8)n7cnc(Cl)c67)n5)CC4)CC3)cc21` (stereo not drawn) gave an IC50 (Pfeiffer cells) of 1 nM and a Dmax (EED protein) of 55%.
For `O=C1CCC(N2C(=O)c3ccc(N4CCC5(CCN(c6ccc(-c7cnc(NCc8c(F)ccc9c8CCO9)n8cnc(Cl)c78)cc6)CC5)CC4)cc3C2=O)C(=O)N1` (stereo not drawn), the Dmax (EED protein) was 40%.
`Cn1c(=O)n(C2CCC(=O)NC2=O)c2ccc(N3CCC(Oc4ccc(-c5cnc(NCc6c(F)ccc7c6CCO7)n6cnc(Cl)c56)cc4)CC3)cc21` (stereo not drawn) showed a Dmax (EED protein) of 21%.
Work on `Cn1nc(C2CCC(=O)NC2=O)c2ccc(N3CCC(CN4CCC(n5cnc(-c6cnc(NCc7c(F)ccc8c7CCO8)n7cnc(Cl)c67)c5)CC4)CC3)cc21` (stereo not drawn) yielded a Dmax (EED protein) of 29%.
In the case of `Cn1nc(C2CCC(=O)NC2=O)c2ccc(N3CCC(CN4CCC(n5cc(-c6cnc(NCc7c(F)ccc8c7CCO8)n7cnc(F)c67)nn5)CC4)CC3)cc21` (stereo not drawn), the Dmax (EED protein) is reported as 41%.
